# Source: PubChem BioAssay (Broad Institute)
# The list is not random: actives were taken first. Their share in the collection is about 2.8%.
# PGC1a acetyl inh: PGC1a acetylation modulation, inhibitor mode; U2OS PGC1a acetylation, AlphaScreen anti-acetyl-lysine; with virally co-expressed GCN5 acetyltransferase; inhibition, % at 15.6 µM; 0.17% of 350,000 active; AID 651687;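 active = every replicate shows inhibition of at least 40%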;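 note: 0% = neutral control wells and 100% = positive control wells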
# C2C12 statin: protects C2C12 myotubes from simvastatin toxicity. ATP luminescence, 48 h; scaled: DMSO 0, geranylgeraniol control 100. rescue of ATP level, % at 7.49 µM. 0.78% of 330,000 active;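 active = mean ATP rescue above about 67%, or every replicate alone reaching that limit, limit read from the data, passing the limit was not always enough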;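 note: myotubes were challenged with 10 µM simvastatin during compound exposure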
# E-sel inducer: E-selectin induction on HUVECs; P16581; HUVEC E-selectin immunofluorescence imaging; normalized: neutral wells 0, TNF-alpha wells 100; activation, % at 7.58 µM; 0.37% of 260,000 active; AID 686992;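 active = mean E-selectin-positive cell signal at least 10% of the positive control, reached in at least 60% of replicates, without over 20% cell loss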
#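 System: HUVEC / Compound: single concentration / Signal: immunofluorescence imaging / Read-out: percent E-selectin-positive cells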
# esBAF inh: blocks esBAF chromatin remodeling in mouse ES cells. Bmi1-luciferase knock-in reporter, 24 h; 100% = twice the neutral-well signal. reporter increase, % at 12.5 µM. 2% of 350,000 active. AID 602393; in the data active = activation above about 40%;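 note: 0% = median of the plate's neutral control wells and 100% = double that signal; a rise in the Bmi1 reporter signal indicates esBAF inhibition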
# PglD DTNB: inhibitors of Campylobacter jejuni PglD acetyltransferase | 0.098% of 360,000 active | purified PglD enzyme, DTNB colorimetric CoA detection | inhibition, % at 12.5 µM | AID 602405; in the data active = inhibition above about 16%, passing the limit was not always enough
# Yeast UUG start-1: alters start codon recognition fidelity in yeast; AID 602363; activity score, % at 18.7 µM; 350,000 tested, 0.13% active; S. cerevisiae UUG-firefly luciferase reporter, luminescence/redox ratio;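 active means replicate mean at a twofold rise or more, about +100% in these data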;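 further: firefly luciferase made from a UUG start codon reports start codon fidelity; reporter light over untreated wells divided by growth signal over untreated wells; some hits fall short of that in this replicate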
# Yeast UUG start-2: yeast start codon fidelity modulation; shares compounds with Yeast UUG start-1; S. cerevisiae UUG-start firefly luciferase, luminescence, 4 h; 100% means double the DMSO signal; activation, % at 38 µM; 540 tested, under 10 active;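 active = signal increase whose fitted curve reaches an absolute level of 40 at a concentration under 10 µM; inactive = activity opposite to the expected increase, or the rest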
# * = called active by the depositor; i = inactive; . = no result given; ! = repeats disagree.
# Every second line gives: PGC1a acetyl inh, C2C12 statin, E-sel inducer, esBAF inh, PglD DTNB, Yeast UUG start-1, Yeast UUG start-2
COc1ccccc1-c1cnc2c(c1)C(=O)N([C@@H](C)CO)C[C@@H](C)[C@@H](CN(C)Cc1ccncc1)O2
→ -4, 29, 0, -3, -2, 137*, i
C[C@H](CO)N1C[C@H](C)[C@H](CN(C)Cc2ccncc2)Oc2ncc(-c3cccc(C#N)c3)cc2C1=O
→ 2, 3, 0, 0, 2, 110*, i
CC(=O)N[C@@H]1C[C@@H]2O[C@@H](CO)CC[C@@H]2O[C@@H]1CCc1ccc(-c2ccc(F)cc2)cc1
→ -9, ., ., ., ., ., .
C[C@@H]1CCCCO[C@H](CN(C)C(=O)CCC(F)(F)F)[C@H](C)CN([C@H](C)CO)C(=O)c2cc(NC(=O)C3CCCCC3)ccc2O1
→ 1, ., 0, -3, 3, 46, .
C[C@@H]1CN([C@@H](C)CO)S(=O)(=O)c2ccc(C#C[C@@H](C)O)cc2O[C@H]1CN(C)C(=O)c1ccccc1
→ -17, -9, 0, -2, 0, 41, .
COc1ccc(-c2cnc3c(c2)C(=O)N([C@@H](C)CO)C[C@@H](C)[C@H](CN(C)Cc2cccnc2)O3)cc1
→ -4, 24, 3, -6, 1, 145*, i
COc1ccccc1-c1cnc2c(c1)C(=O)N([C@@H](C)CO)C[C@@H](C)[C@H](CN(C)C(=O)c1cccnc1)O2
→ -7, 5, 1, 0, 2, 200*!, i
CN(C)c1ccc(/C=C/c2ccc3ccccc3[n+]2C)cc1
→ 35, -70, ., -65, -2, 127*, 11
O=C(Cc1cccc2ccccc12)NCC(=O)N1CCN(Cc2cccc(C(F)(F)F)c2)CC1
→ 4, 0, 0, -21, ., 116*, 12
C[C@H](CO)N1C[C@H](C)[C@H](CN(C)C(=O)Nc2cccc3ccccc23)Oc2ccc(N(C)C)cc2CC1=O
→ 7, 2, -16, 1, 2, -4, .

# Look-ups from the results shown:
# COc1ccccc1-c1cnc2c(c1)C(=O)N([C@@H](C)CO)C[C@@H](C)[C@H](CN(C)C(=O)c1cccnc1)O2 | E-sel inducer = 1
# COc1ccccc1-c1cnc2c(c1)C(=O)N([C@@H](C)CO)C[C@@H](C)[C@@H](CN(C)Cc1ccncc1)O2 | PglD DTNB = -2

# Going on with the list:
# Every second line gives: PGC1a acetyl inh, C2C12 statin, E-sel inducer, esBAF inh, PglD DTNB, Yeast UUG start-1, Yeast UUG start-2
CNC(=O)C[C@@H]1CC[C@H]2[C@H](COc3ccc(NC(=O)c4cccc(F)c4)cc3C(=O)N2C)O1
→ 2, -10, 0, 3, -1, -7, .
O=C(CN1C(=O)c2ccccc2S1(=O)=O)c1ccc(O)c(O)c1
→ 4, ., 1, ., -8, 165*, -5
O=C(CN1C(=O)c2ccccc2S1(=O)=O)c1ccc(F)c(F)c1
→ 1, ., 0, ., 7, -29, .
O=C(NCC1OCCc2ccccc21)c1ccco1 (stereo not drawn)
→ -8, 3, ., 6, 5, 323*, 2
C[C@H](CO)N1C[C@H](C)[C@@H](CN(C)Cc2ccc(Cl)c(Cl)c2)OCCCC[C@H](C)Oc2ccc(NS(=O)(=O)c3cn(C)cn3)cc2C1=O
→ 0, ., 0, -11, -3, 1, .
Cn1nc(C(=O)NCc2ccccc2)c2ccccc2c1=O
→ -5, 19, ., 1, -5, -12, .
CCCCn1nc(CC(=O)NCCN(CC)CC)c2ccccc2c1=O
→ -9, 10, 6, -7, ., ., -6
CCN(CC)CCNC(=O)Cn1nc(Cc2cccnc2)c2ccccc2c1=O
→ ., 15, 0, 3, -1, -8, .
CCN(CC)CCNC(=O)C(C)c1nn(C)c(=O)c2ccccc12 (stereo not drawn)
→ -4, 8, ., 0, 2, 5, -5
CC(C)NC(=O)N1CC(=O)N2[C@H](CO)[C@@H](c3ccc(C#CCN(C)C)cc3)[C@H]2C1
→ 2, ., 0, ., ., ., .

# Only PGC1a acetyl inh, C2C12 statin and Yeast UUG start-2, for 2 of the compounds above:
canonical_smiles | PGC1a acetyl inh | C2C12 statin | Yeast UUG start-2
CNC(=O)C[C@@H]1CC[C@H]2[C@H](COc3ccc(NC(=O)c4cccc(F)c4)cc3C(=O)N2C)O1 | 2 | -10 | .
O=C(CN1C(=O)c2ccccc2S1(=O)=O)c1ccc(O)c(O)c1 | 4 | . | -5

# Next part:
# Labels used below – A = PGC1a acetyl inh; B = C2C12 statin; C = E-sel inducer; D = esBAF inh; E = PglD DTNB; F = Yeast UUG start-1; G = Yeast UUG start-2
> CC(C)C[C@@H](CNCC(=O)[C@H](C)NC(=O)c1[nH]cnc1C(=O)N[C@@H](C)CN)NC(=O)c1nc[nH]c1C(=O)N[C@@H](Cc1ccccc1)C(=O)O
  A = . | B = 5 | C = 0 | D = -1 | E = -2 | F = 3 | G = .
> CC(C)C[C@@H](CNCC(=O)[C@H](CC(=O)O)NC(=O)c1[nH]cnc1C(=O)N[C@H](CN)CC(C)C)NC(=O)c1nc[nH]c1C(=O)N[C@@H](C)C(=O)O
  A = 8 | B = 5 | C = 0 | D = 2 | E = -4 | F = 138* | G = 1
> CC(C)C[C@@H](CNCC(=O)[C@H](CC(C)C)NC(=O)c1[nH]cnc1C(=O)N[C@@H](C)CN)NC(=O)c1nc[nH]c1C(=O)N[C@@H](C)C(=O)O
  A = 0 | B = 5 | C = 0 | D = -4 | E = -11 | F = 135* | G = 14
> CC(C)C[C@@H](CN)NC(=O)c1nc[nH]c1C(=O)N[C@@H](Cc1ccccc1)C(=O)CNC[C@H](C)NC(=O)c1nc[nH]c1C(=O)N[C@@H](C)C(=O)O
  A = -1 | B = -1 | C = 0 | D = -6 | E = -3 | F = 0 | G = .
> CC(C)C[C@@H](CN)NC(=O)c1nc[nH]c1C(=O)N[C@@H](Cc1c[nH]c2ccccc12)C(=O)CNC[C@H](C)NC(=O)c1nc[nH]c1C(=O)N[C@@H](C)C(=O)O
  A = -4 | B = 2 | C = 1 | D = -6 | E = -2 | F = 166* | G = -1
> CC(C)C[C@@H](CN)NC(=O)c1nc[nH]c1C(=O)N[C@@H](C)C(=O)CNC[C@H](CC(C)C)NC(=O)c1nc[nH]c1C(=O)N[C@@H](CC(=O)O)C(=O)O
  A = 1 | B = -5 | C = 0 | D = -2 | E = -8 | F = 6 | G = .
> O=C(N[C@H]1CC[C@H](CCNC(=O)C2CCCCC2)O[C@@H]1CO)c1ccncc1
  A = 11 | B = -9 | C = 0 | D = 0 | E = 2 | F = -9 | G = .
> O=C(CNC(=S)NC(=O)C1CCCCC1)c1ccccc1
  A = -12 | B = -35 | C = . | D = 21 | E = -2 | F = 523* | G = 2
> O=C(C[C@H]1C[C@@H]2c3cc(NS(=O)(=O)c4ccccc4)ccc3O[C@@H]2[C@@H](CO)O1)N1CCOCC1
  A = -1 | B = -2 | C = 0 | D = -3 | E = -2 | F = . | G = .
> N=c1c(C(=O)NC2CCCC2)cc2c(=O)n3ccccc3nc2n1CCN1CCOCC1
  A = . | B = -10 | C = . | D = 1 | E = -6 | F = 474* | G = -9
> N=c1c(C(=O)NC2CCCC2)cc2c(=O)n3ccccc3nc2n1CCCN1CCOCC1
  A = 6 | B = 1 | C = . | D = -6 | E = 3 | F = -6 | G = .
> O=C(C[C@@H]1CC[C@H](NC(=O)c2cccc(F)c2)[C@@H](CO)O1)NCc1ccc(Oc2ccccc2)cc1
  A = -1 | B = 10 | C = 0 | D = -8 | E = 3 | F = 145* | G = i
> CCC(=O)Nc1ccc2c(c1)C(=O)N(C)[C@@H]1CC[C@H](CC(=O)NCc3ccccc3Cl)O[C@H]1CO2
  A = 3 | B = -3 | C = 0 | D = -5 | E = 0 | F = 10 | G = .
> COc1cccc(C#Cc2cnc3c(c2)C(=O)N([C@H](C)CO)C[C@H](C)[C@H](CN(C)C(=O)C2CCOCC2)O3)c1
  A = 4 | B = 17 | C = 0 | D = -5 | E = 1 | F = 125* | G = i
> COc1cccc(C#Cc2cnc3c(c2)C(=O)N([C@@H](C)CO)C[C@H](C)[C@@H](CN(C)C(=O)C2CCOCC2)O3)c1
  A = 5 | B = 16 | C = 1 | D = -2 | E = 0 | F = 3 | G = .
